Assay results reported in patent US10071133B2, “Method for destroying exosomes, kit for destroying exosomes, and method for isolating exosomes derived from normal cells” (priority 2015, dated 2018).

System: exosome fraction B derived from human breast cancer cells (MDA-MB-231-luc-D3H2LN)
Experiment: Extraction of microRNA (miR-21) from exosomes derived from human breast cancer cells, real-time PCR
Assay type: biochemical
Conditions: 100 μM peptide, 1×10^11 particles/mL exosomes, 0.4 U/μL RNase inhibitor, 37° C., 24 hours; without peptide 8×10^−14M
Protocol: A cell suspension of cell line MDA-MB-231-luc-D3H2LN derived from human breast cancer (=MM231-luc-D3H2LN, provided by the National Cancer Center Research Institute) was seeded in a dish containing RPMI 1640 medium (manufactured by Thermo Fisher Scientific Inc.) containing 10% fetal bovine serum. Subsequently, the cell line was grown at 37° C. under the condition that CO2 concentration was set to 5 volume % using a CO2 incubator, and then the medium was replaced with Advanced RPMI 1640 medium (manufactured by Thermo Fisher Scientific Inc.), followed by culturing for 48 hours, and therefore the culture solution containing exosomes was obtained. This culture solution was centrifuged at 2,000 G for 10 minutes to remove the precipitate, followed by centrifugation at 110,000 G for 70 minutes to precipitate the exosomes, and therefore an exosome fraction B was recovered. […]
The reverse transcription PCR solution obtained by the above described method was processed and by comparing the number of cycles on a calibration curve of microRNA using Taqman Assay primer (manufactured by Thermo Fisher Scientific Inc., Taqman microRNA Assays, Taqman Assay primer, and hsa-mir-21 or hsa-mir-16) and Real-Time PCR Master Mixes (manufactured by Thermo Fisher Scientific Inc., TaqMan Universal PCR Master Mix II, w/UNG) with StepOnePlus Real-Time PCR System, MiR-21 or miR-16 was quantified. […]

Substance: PNC-28
- Destructive activity (concentration of microRNA miR-21 in eluate): D (the concentration of microRNA is less than 10×10^−14M)
